Common to all, as to conditions: filed as antagonist
In assay [1] the target is Nociceptin receptor (Homo sapiens) (UniProt P41146). Description: Activity on Nociceptin/orphanin FQ (N/OFQ) receptor was determined by GTPgammaS functional assay using recombinant HEK293 cells.
Assay [2] has as its target Mu-type opioid receptor (Homo sapiens) (UniProt P35372). Description: Activity was determined for the compound against the Mu opioid receptor by GTPgammaS functional assay using recombinant HEK293 cells; PA: Partial antagonist.
Assay [3] shares this target. Description: Activity was determined for the compound against the Mu opioid receptor by GTPgammaS functional assay using recombinant HEK293 cells.
Assay [4] has as its target Nociceptin receptor (Homo sapiens) (UniProt P41146). The experiment in a line: Activity on Nociceptin/orphanin FQ (N/OFQ) receptor was determined by GTPgammaS functional assay using recombinant HEK293 cells; PA: Partial antagonist.

Protein sequences, listed by entry. Tags and fused reporters are not part of them. Lines headed by an entry give the natural chain unless they say otherwise; changes in a name come on top.
UniProt P41146: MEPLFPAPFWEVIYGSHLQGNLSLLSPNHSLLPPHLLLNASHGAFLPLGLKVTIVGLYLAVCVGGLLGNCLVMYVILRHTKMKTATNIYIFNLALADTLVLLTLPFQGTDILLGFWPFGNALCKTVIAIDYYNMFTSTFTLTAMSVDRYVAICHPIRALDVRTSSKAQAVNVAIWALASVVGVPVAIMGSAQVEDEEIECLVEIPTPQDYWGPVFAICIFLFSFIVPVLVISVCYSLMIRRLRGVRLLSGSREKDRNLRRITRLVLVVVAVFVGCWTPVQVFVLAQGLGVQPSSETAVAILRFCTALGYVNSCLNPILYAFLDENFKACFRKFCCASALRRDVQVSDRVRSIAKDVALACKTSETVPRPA
UniProt P35372, whole entry, looked up: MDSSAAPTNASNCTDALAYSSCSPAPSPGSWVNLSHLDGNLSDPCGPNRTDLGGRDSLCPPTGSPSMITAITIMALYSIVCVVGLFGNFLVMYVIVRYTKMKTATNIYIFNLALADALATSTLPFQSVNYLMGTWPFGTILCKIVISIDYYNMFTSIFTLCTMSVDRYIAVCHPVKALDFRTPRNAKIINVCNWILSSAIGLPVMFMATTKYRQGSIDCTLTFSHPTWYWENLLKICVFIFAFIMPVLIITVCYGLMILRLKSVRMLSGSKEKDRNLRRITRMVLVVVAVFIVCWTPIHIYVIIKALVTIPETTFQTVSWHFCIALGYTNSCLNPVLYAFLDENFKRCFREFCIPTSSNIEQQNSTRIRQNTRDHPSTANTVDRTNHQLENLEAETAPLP

Consider `CCN1C(=O)N(C2CCN(Cc3ccc4ccccc4c3)CC2)[C@@H]2CCCC[C@H]21`, for which the Activity entry in assay [1] is “Antagonist”.

On to `CCN1C(=O)N(C2CCN(Cc3ccccc3)CC2)[C@@H]2CCCC[C@H]21`, for which the Activity result in assay [1] was “Antagonist”; in assay [2] it was “Partial antagonist”. Take `CC(C)CCC(C)N1CCC(N2C(=O)N[C@@H]3CCCC[C@H]32)CC1` (stereo partly specified): the Activity entry in assay [3] was “Antagonist”; in assay [4] it was “Partial antagonist”.

Regarding `CCN1C(=O)N(C2CCN(C(C)CCC(C)C)CC2)[C@@H]2CCCC[C@H]21` (stereo partly specified), the Activity result was “Antagonist” in assay [1] and “Partial antagonist” in assay [2]. For the molecule `CC(C)C1CCC(N2CCC(N3C(=O)N[C@@H]4CCCC[C@H]43)CC2)CC1` (stereo partly specified), the Activity entry in assay [3] was “Antagonist”; in assay [4], “Partial antagonist”.

With `O=C1N[C@@H]2CCCC[C@H]2N1C1CCN(C2CCCCCCC2)CC1`, the Activity entry in assay [1] and in assay [3] was “Antagonist” throughout. In the case of `CCN1C(=O)N(C2CCN(C3CCC(C(C)C)CC3)CC2)[C@@H]2CCCC[C@H]21` (stereo partly specified), the Activity entry in assay [1] and in assay [3] was “Antagonist” throughout. Regarding `O=C1N[C@@H]2CCCC[C@H]2N1C1CCN(Cc2ccccc2)CC1`, the Activity entry in assay [1] is “Antagonist”. Regarding `CCN1C(=O)N(C2CCN(C3CCCCCCC3)CC2)[C@@H]2CCCC[C@H]21`, the Activity result in assay [1] and in assay [3] was “Antagonist” in each case. With `O=C1N[C@@H]2CCCC[C@H]2N1C1CCN(CC2CCCCCCC2)CC1`, the Activity result in assay [1] and in assay [3] was “Antagonist” throughout. With `CCN1C(=O)N(C2CCN(CC3CCCCCCC3)CC2)[C@@H]2CCCC[C@H]21`, the Activity result in assay [1] and in assay [3] was “Antagonist” throughout. Regarding `CCCC1CCC(N2CCC(N3C(=O)N[C@@H]4CCCC[C@H]43)CC2)CC1` (stereo partly specified), the Activity entry was “Antagonist” in assay [3] and “Partial antagonist” in assay [4]. Take `CCN1C(=O)N(C2CCN(C3CCC4CCCCC4C3)CC2)[C@@H]2CCCC[C@H]21` (stereo partly specified): the Activity result in assay [1] and in assay [3] was “Antagonist” throughout.

Take `O=C1N[C@@H]2CCCC[C@H]2N1C1CCN(C2CCC3CCCCC3C2)CC1` (stereo partly specified): the Activity entry in assay [3] is “Antagonist”; in assay [4] it was “Partial antagonist”.
